Literature values as cited in US20140314746A1, “METHODS FOR TREATING OR PREVENTING FIBROSIS IN SUBJECTS AFFLICTED WITH SCLERODERMA” (Philadelphia Health and Education Corporation, d/b/a Drexel …, priority 2013, published 2014).

Assays:
IL-1β [1] = target: T1, IL-1β (Homo sapiens, UniProt P01584); conditions: cited from earlier work
IL-1β [2] = target: T1, IL-1β; conditions: cited from earlier work; remark: listed apart in the source

XOMA-052: a potent anti-IL-1β humanized neutralizing antibody
in vitro potency (IL-1β [1]): low picomolar range
binding affinity (IL-1β [2]): 300 femtomolar
